Measured values from ChEMBL document CHEMBL4334547 (ACS Med Chem Lett, 2020).
pEC50: −log10 of the molar value.

Experiment: Inhibition of mouse derived homozygous Tg0N4R P301S mutant tau-induced human ON4R tau aggregation harboring P301S mutant transfected in HEK293 cells preincubated for 2 hrs followed by compound addition and measured after 3 hrs by YFP-based fluorescence assay

Row | SMILES | pEC50
1 | CN(CC(=O)N1CCN(c2cccc3ccccc23)CC1)C(=O)c1cccs1 | < 5.00
2 | O=C(Cc1nc(C(F)(F)F)cs1)N1CCN(c2cncc3ccccc23)CC1 | 6.40
3 | Cn1ccc(CC(=O)N2CCN(c3cncc4ccccc34)CC2)n1 | 6.28
4 | CNC(=O)c1ccc2cncc(-c3ccc4c(c3)CS(=O)(=O)N4C)c2n1 | 8.05
5 | Cn1cc2ccc(N3CCN(c4cncc5ccccc45)CC3)cc2n1 | 7.66
6 | Cn1ncc2ccc(N3CCN(c4cncc5ccc(C(F)F)cc45)CC3)cc21 | 7.01
7 | Cc1nc2cc(N3CCN(c4cncc5ccccc45)CC3)ccn2n1 | 5.96
8 | O=C(CC1CCCO1)N1CCN(c2cncc3ccccc23)CC1 (centres undefined) | < 5.00
9 | Cc1nc2cc(N3CCN(c4cncc5ccccc45)CC3)ccc2o1 | < 5.00
10 | Cn1ncc2ccc(N3CCN(c4cncc5ccccc45)CC3)cc21 | 6.92
11 | CC(C)(C)C(=O)N1CCN(c2cncc3ccccc23)CC1 | 6.04
12 | Cn1cc2ccc(N3CCN(c4cncc5ccccc45)CC3)c(F)c2n1 | < 5.00
13 | Cc1cc(CC(=O)N2CCN(c3cncc4ccccc34)CC2)on1 | 5.00
14 | Cc1cn2ccc(N3CCN(c4cncc5ccccc45)CC3)cc2n1 | 6.48
15 | Cc1nc(CC(=O)N2CCN(c3cncc4ccccc34)CC2)co1 | 6.55
16 | Cn1cc2ccc(N3CCN(c4cncc5ccccc45)CC3)nc2n1 | < 5.00
17 | O=C(Cc1coc(C2CC2)n1)N1CCN(c2cncc3ccccc23)CC1 | 6.92
18 | CN(C)C(=O)Cn1cc(-c2ccc(-c3cncc4ccccc34)cc2)cn1 | 8.30
19 | Cn1ncc2ccc(N3CCN(c4cncc5ccc(C#N)cc45)CC3)cc21 | 7.46
20 | CN(CC(=O)N1CCN(c2cncc3ccccc23)CC1)C(=O)c1cccs1 | 6.41
21 | CC1(C(=O)N2CCN(c3cncc4ccccc34)CC2)COC1 | 5.85
22 | Cc1nc2ccc(N3CCN(c4cncc5ccccc45)CC3)cc2o1 | < 5.00
23 | CC(C)n1ccc(CC(=O)N2CCN(c3cncc4ccccc34)CC2)n1 | 6.77
24 | Cn1nccc1CC(=O)N1CCN(c2cncc3ccccc23)CC1 | < 5.00
25 | CC(=O)c1ccc2cncc(N3CCN(c4ccc5cnn(C)c5c4)CC3)c2c1 | 7.82
26 | O=C(C1CCOC1)N1CCN(c2cncc3ccccc23)CC1 (centres undefined) | 6.23
27 | CC(C)(C)c1nc(CC(=O)N2CCN(c3cncc4ccccc34)CC2)co1 | 6.17
28 | COc1ccc2cncc(N3CCN(c4ccc5cnn(C)c5c4)CC3)c2c1 | < 5.00
29 | Cc1csc(CC(=O)N2CCN(c3cncc4ccccc34)CC2)n1 | 6.92
